Reference: patent US6251919A, “Heterocyclic substituted aniline calcium channel blockers” (Warner-Lambert, priority 1999, dated 2001)

What follows are compounds tested on male Swiss-Webster mice (assay: Anti-Writhing Test in Mice (AW), acetic acid). Settings: 10 mg/kg.
Format: in vivo
Description: Anti-Writhing Test in Mice (AW) Test Protocol
The purpose of this test is to evaluate drugs for analgesic-like activity. The AW test determines the effect of drugs on the response to a presumed painful stimulus in mice and is used as a preliminary in vivo procedure for the identification of potential analgesic agents.
Known analgesics with low, moderate, or high efficacy in man allow mice to tolerate intra-peritoneal administration of dilute acetic acid as evidenced by lesser incidence of writhing movements. The AW test measures the nociceptive response to acetic acid in mice and provides an objective, reliable, and quantitative estimate of efficacy and potency of potential analgesic compounds. This test serves as a preclinical predictor of analgesic activity.
Subjects are male Swiss-Webster mice (25-35 g).
Compounds are dissolved or suspended in physiological saline containing 2% Emulphor. Suspensions are subjected to ultrasonication for 3 minutes. Drug doses are expressed as the active moiety and are normally administered to mice (10, 30, and 100 mg/kg IP, SC, PO, or IM) in a volume of 10 mL/kg, 1 hour prior to testing; ICV doses (in μg/kg) are administered in a volume of 0.5 mL/kg, 5 minutes prior to testing. Animals dosed PO are fasted for 16 hours prior to dosing. Groups of eight mice are tested with each dose or the vehicle solution (control group).
Mice are treated with a dilute solution of acetic acid (0.6%, 10 mL/kg IP) which elicits writhing. In four successive trials, one pair of mice from each treatment group is placed in one of four adjacent clear plexiglas chambers (4 in×4 in×4 in). This allows the simultaneous observation of four pairs of mice representing all treatments and controls throughout the test. Writhing movements (abdominal contractions, stretching of the torso and hind legs, and concave arching of the back) are counted for 5 minutes commencing 7 minutes after acetic acid administration.
Drug effects on acetic acid-induced writhing are expressed as percent suppression of writhing relative to the vehicle-treated control group run in parallel with treated animals. The writhing tallies from pairs of animals are summed for each treatment and are divided by the summed writhing in the control group. The ED50 s for suppression of writhing are determined by nonlinear regression analysis.

Compared with `CC(C)=CCN(c1ccc(OCc2ccccc2)cc1)C1CCN(Cc2ccccc2)CC1` [Example 19, (4-Benzyloxy-phenyl)-(1-benzyl-piperidin4-yl)-(3-methyl-but-2-enyl)-amine], `CC(C)=CCN(c1ccc(OCc2ccccc2)cc1)C1CCN(CCC(C)(C)C)CC1` [Example 2, (4-Benzyloxy-phenyl)-[1-(3,3-dimethyl-butyl)-piperidin-4-yl]-(3-methyl-but-2-enyl)-amine] is higher in “Anti-Writhing % Protection” value: 32% for the first, 49% for the second.

Going from `CC(C)=CCN(c1ccc(CCC(C)(C)C)cc1)C1CCN(Cc2ccc(N(C)C)cc2)CC1` [Example 39, [1-(4-Dimethylamino-benzyl)-piperidin-4-yl]-[4-(3,3-dimethyl-butyl)-phenyl]-(3-methyl-but-2-enyl)-amine] to `CC(C)=CCN(c1ccc(C(C)C)cc1)C1CCN(CCC(C)(C)C)CC1` [Example 26, [1-(3,3-Dimethyl-butyl)-piperidin-4-yl]-(4-isopropyl-phenyl)-(3-methyl-but-2-enyl)-amine], the “Anti-Writhing % Protection” value falls from 95% to 11%.

With `CC(C)CCN(c1ccc(OCC2CCCCC2)cc1)C1CCN(CCC(C)(C)C)CC1` [Example 42, (4-Cyclohexylmethoxy-phenyl)-[1-(3,3-dimethyl-butyl)-piperidin-4-yl]-(3-methyl-butyl)-amine] the “Anti-Writhing % Protection” value was 6.5%.
